Where “and” joins values, the source holds several entries; their conditions need not be identical. Equal values may be shown once. Only results without a clear call are listed here; the source files them as inconclusive. The calls were made as follows: active = hit-call score of the fitted dose curve at least 0.9, where 1 is the maximum; inconclusive = response in the unintended direction; inactive = score below 0.9.
Key:
[1] = ATG_GAL4_TRANS: Attagene TRANS-FACTORIAL HepG2 Assay for GAL4 (Internal Marker) (AID 2282976); conditions: HepG2 Attagene TRANS GAL4 internal marker reporter
Method in brief: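 Background-control readout: GAL4-UAS reporter transcript in transiently transfected HepG2 cells after 24 h compound exposure. Measured by RT-PCR, 6-FAM primer extension, HpaI digest and capillary electrophoresis; gain-of-signal fit versus DMSO.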

By UniProt entry, the sequences of proteins in these tests, tags left out. Where a name states a change or a piece, a line headed by the entry shows the natural chain unless it says otherwise.
UniProt Q07869: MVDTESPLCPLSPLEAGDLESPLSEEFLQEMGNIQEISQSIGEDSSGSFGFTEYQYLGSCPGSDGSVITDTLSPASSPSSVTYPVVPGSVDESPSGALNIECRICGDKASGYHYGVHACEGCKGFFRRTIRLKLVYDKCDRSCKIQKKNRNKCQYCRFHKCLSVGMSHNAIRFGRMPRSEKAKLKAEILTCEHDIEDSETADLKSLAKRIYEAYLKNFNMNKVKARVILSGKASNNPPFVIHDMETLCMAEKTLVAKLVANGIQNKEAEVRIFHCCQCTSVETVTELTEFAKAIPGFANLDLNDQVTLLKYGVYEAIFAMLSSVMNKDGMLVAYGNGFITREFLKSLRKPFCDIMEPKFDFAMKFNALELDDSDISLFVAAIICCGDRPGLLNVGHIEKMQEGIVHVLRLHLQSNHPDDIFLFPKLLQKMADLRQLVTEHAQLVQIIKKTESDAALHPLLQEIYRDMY
UniProt P37231: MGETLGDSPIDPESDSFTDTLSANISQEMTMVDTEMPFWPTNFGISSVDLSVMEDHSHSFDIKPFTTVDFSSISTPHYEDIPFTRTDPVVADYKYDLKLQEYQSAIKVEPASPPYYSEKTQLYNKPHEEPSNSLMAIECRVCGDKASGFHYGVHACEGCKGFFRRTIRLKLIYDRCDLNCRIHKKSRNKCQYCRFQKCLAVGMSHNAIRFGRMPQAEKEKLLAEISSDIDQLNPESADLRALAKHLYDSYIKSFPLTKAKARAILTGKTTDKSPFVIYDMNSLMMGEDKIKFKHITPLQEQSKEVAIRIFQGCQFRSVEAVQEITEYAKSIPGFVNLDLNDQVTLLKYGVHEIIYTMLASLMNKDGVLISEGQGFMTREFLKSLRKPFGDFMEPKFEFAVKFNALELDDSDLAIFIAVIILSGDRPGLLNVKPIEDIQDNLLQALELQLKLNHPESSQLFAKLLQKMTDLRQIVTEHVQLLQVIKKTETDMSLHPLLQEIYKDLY
UniProt P28702: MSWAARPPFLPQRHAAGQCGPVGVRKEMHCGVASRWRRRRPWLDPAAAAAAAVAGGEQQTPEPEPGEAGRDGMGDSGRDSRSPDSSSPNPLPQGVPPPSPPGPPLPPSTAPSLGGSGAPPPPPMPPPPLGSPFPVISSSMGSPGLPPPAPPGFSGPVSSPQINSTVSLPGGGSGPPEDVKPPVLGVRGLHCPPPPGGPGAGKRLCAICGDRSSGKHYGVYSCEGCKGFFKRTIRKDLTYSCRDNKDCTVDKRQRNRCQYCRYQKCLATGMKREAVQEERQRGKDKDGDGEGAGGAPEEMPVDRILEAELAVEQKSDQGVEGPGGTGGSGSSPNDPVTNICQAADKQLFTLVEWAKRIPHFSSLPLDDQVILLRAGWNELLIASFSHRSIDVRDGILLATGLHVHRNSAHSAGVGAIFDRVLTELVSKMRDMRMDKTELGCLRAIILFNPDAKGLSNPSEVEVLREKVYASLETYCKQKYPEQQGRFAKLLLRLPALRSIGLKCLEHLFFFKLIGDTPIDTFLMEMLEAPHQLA
UniProt P11473: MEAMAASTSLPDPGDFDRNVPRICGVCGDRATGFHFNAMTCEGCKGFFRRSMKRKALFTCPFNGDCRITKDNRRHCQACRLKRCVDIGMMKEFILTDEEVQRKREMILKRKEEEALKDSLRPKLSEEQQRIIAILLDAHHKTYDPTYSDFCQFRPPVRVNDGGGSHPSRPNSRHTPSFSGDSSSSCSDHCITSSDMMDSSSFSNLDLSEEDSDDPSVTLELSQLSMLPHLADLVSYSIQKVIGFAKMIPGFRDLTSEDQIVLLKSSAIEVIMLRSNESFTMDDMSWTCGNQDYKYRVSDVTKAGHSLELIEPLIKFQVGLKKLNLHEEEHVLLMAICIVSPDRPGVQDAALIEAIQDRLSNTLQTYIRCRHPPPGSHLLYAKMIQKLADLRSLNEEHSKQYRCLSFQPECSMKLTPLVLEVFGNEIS
UniProt P19793: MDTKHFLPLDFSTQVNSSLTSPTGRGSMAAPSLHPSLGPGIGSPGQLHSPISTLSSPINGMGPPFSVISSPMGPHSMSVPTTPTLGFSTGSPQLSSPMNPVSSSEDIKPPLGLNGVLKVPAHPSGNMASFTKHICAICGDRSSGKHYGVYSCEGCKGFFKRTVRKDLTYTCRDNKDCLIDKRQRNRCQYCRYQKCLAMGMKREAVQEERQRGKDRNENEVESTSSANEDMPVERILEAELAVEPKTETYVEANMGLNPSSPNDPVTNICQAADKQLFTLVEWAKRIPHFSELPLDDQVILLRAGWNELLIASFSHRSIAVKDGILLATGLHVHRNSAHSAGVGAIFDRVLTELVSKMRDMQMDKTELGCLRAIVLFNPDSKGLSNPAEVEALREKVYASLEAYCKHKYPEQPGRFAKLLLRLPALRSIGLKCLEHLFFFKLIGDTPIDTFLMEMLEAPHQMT
UniProt P57717: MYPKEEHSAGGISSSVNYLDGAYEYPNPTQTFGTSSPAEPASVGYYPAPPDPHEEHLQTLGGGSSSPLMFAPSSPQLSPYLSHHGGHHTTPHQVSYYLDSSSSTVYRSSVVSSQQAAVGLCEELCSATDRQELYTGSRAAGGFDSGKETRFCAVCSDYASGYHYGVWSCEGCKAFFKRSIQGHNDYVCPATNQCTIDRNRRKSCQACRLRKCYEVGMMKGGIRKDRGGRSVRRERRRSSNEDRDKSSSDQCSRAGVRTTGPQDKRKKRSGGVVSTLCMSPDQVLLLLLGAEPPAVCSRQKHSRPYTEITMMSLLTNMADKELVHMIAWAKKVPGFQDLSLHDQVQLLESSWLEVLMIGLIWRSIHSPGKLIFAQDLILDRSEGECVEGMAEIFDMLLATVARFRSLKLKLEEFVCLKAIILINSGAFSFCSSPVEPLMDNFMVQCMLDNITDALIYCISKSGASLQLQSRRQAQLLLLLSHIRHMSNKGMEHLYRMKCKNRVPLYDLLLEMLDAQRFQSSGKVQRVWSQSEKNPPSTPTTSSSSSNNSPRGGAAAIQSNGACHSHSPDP
UniProt P10275: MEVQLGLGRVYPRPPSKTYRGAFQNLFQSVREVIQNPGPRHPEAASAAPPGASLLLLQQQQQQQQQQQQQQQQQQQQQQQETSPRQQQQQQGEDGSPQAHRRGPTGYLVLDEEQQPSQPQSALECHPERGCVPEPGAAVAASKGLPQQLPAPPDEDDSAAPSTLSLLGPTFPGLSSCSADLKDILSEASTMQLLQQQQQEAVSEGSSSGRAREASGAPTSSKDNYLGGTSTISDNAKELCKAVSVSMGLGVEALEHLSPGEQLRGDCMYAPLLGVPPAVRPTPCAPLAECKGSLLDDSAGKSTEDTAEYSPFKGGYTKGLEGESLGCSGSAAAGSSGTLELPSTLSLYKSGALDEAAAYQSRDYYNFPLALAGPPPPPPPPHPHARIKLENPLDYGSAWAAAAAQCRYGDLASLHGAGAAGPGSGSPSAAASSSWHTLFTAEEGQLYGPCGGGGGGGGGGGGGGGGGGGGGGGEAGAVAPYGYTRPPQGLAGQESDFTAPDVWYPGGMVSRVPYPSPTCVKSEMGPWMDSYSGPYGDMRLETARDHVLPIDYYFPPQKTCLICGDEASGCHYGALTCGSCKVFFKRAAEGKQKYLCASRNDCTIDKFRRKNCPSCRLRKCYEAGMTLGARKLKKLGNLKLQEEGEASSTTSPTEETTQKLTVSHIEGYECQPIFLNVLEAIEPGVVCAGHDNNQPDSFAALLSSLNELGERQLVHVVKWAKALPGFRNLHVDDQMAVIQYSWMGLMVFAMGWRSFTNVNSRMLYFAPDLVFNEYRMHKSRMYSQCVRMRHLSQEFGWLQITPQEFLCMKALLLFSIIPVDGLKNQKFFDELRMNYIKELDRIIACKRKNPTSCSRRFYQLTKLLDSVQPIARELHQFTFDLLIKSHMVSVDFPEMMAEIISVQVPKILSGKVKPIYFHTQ
UniProt Q98867: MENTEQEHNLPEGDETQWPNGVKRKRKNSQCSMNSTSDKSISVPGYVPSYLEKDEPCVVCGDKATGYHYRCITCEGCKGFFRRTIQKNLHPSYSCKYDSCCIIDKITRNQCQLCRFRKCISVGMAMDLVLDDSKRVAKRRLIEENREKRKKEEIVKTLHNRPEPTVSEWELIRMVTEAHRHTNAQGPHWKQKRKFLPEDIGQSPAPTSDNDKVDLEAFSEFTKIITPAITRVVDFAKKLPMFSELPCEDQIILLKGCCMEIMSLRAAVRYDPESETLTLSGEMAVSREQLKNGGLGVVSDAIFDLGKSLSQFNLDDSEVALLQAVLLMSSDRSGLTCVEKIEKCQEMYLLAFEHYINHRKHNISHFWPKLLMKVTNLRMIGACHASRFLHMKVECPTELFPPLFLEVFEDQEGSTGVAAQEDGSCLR
UniProt Q9PVE4: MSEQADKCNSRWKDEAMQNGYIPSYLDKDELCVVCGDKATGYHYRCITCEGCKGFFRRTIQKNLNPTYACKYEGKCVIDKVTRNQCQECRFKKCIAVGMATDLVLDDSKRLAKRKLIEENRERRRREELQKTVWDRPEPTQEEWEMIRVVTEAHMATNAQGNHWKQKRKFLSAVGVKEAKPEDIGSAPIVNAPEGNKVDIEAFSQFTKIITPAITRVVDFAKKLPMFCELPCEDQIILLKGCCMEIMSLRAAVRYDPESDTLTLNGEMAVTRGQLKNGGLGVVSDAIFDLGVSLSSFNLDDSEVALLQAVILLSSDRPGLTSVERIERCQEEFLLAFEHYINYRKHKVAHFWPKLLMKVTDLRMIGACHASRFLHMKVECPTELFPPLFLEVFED
UniProt P15204: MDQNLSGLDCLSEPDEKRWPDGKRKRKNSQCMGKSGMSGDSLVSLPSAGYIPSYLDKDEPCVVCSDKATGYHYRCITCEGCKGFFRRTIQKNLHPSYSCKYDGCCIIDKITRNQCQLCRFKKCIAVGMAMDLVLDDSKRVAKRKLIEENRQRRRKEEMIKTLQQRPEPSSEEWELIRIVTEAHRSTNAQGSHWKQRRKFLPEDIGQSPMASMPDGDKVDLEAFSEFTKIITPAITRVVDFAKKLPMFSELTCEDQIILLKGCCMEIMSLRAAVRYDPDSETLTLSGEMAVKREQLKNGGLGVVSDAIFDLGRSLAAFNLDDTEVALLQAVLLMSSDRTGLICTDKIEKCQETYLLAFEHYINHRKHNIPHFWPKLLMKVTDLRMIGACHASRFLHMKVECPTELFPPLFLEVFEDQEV

[2] = ATG_M_32_TRANS: Attagene TRANS-FACTORIAL HepG2 Assay for M32 Transcription Factor (Internal Marker) (AID 2282984); conditions: HepG2 Attagene TRANS M32 internal marker reporter
Method in brief: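 Read-out: fluorescent reporter cDNA fragments resolved by capillary electrophoresis after RT-PCR of total RNA. Transfected HepG2 cells were exposed to chemical for 24 h. Activity scored in the positive direction relative to DMSO.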

[3] = biological target: human Peroxisome Proliferator-activated Receptor alpha (PPARa), PPARA (gene 5465) (UniProt Q07869); assay: ATG_PPARa_TRANS: Attagene TRANS-FACTORIAL HepG2 Assay for human Peroxisome Proliferator-activated Receptor alpha (PPARa) (AID 2283001);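 also: potency for gain of reporter signal over DMSO so agonist or activator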
Method in brief: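 Transient HepG2 transfection, GAL4-UAS reporters, NR-Gal4 chimeras; 24 h compound exposure. Readout: reporter transcripts by RT-PCR, 6-FAM primer extension, HpaI digest, capillary electrophoresis. Positive direction vs DMSO baseline.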

[4] = biological target: Peroxisome proliferator-activated receptor gamma (Homo sapiens) (UniProt P37231); assay: ATG_PPARg_TRANS: Attagene TRANS-FACTORIAL HepG2 Assay for human Peroxisome Proliferator-activated Receptor-gamma (PPARg) (AID 2283007)
Method in brief: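 After 24 h of chemical exposure, transfected HepG2 cells carrying PPARγ-Gal4 chimera reporter constructs are lysed for RNA. Reporter transcripts are measured by RT-PCR and capillary electrophoresis with fluorescent labelling, and gain of signal is fitted versus DMSO.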

[5] = biological target: human Retinoid X Receptor beta (RXRb), RXRB (gene 6257) (UniProt P28702); assay: ATG_RXRb_TRANS: Attagene TRANS-FACTORIAL HepG2 Assay for human Retinoid X Receptor beta (RXRb) (AID 2283013)
Method in brief: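 Read-out: reporter mRNA induction via RT-PCR plus capillary electrophoresis fluorescence, analysed as signal increase relative to DMSO. Cells were human HepG2, transiently transfected with GAL4-UAS reporter constructs and chimeric receptor-Gal4 fusions, dosed for 24 h.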

[6] = biological target: human Vitamin D Receptor (VDR), VDR (gene 7421) (UniProt P11473); assay: ATG_VDR_TRANS: Attagene TRANS-FACTORIAL HepG2 Assay for human Vitamin D Receptor (VDR) (AID 2283022)
Method in brief: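 HepG2 cells were transiently transfected with GAL4-UAS reporter units and a chimeric VDR-Gal4 construct, then dosed for 24 hours. Reporter mRNA was quantified by RT-PCR, fluorescent labeling, HpaI digestion and capillary electrophoresis; gain of signal analysed vs DMSO.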

[7] = biological target: Retinoic acid receptor RXR-alpha (Homo sapiens) (UniProt P19793); assay: OT_NURR1_NURR1RXRa_0480: Odyssey Thera (OT) 8-hour HEK293T Protein Complementation Assay for Nurr1/retinoid X receptor (RXR) (AID 2283385)
Method in brief: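 Read-out: fluorescence from protein-fragment complementation between Nurr1 and RXRα in human HEK293T cells, 8 h after dosing. DMSO served as negative control; increased signal counted as activity.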

[8] = CCTE_Simmons_CellTiterGLO_HEK293T: Viability Assessment in CCTE's Assays for Thyroperoxidase (TPO) Inhibition, Simmons Lab (AID 2283665);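 also: cells exposed to compound for 24 h before readout; actives reduce ATP signal below DMSO vehicle meaning cytotoxicity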
Method in brief: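 Luminescent ATP readout (CellTiter-Glo, 20 min at room temperature) after 24 hr exposure of HEK293T cells to 5 nM–87.5 uM final compound; signal loss relative to DMSO vehicle indicated cytotoxicity; dichlone titrated as positive control.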

[9] = ACEA_AR_agonist_AUC_viability: ACEA Biosciences xCELLigence Real-Time Cell Analysis on Androgen Receptor Agonism for Viability (AID 2283775);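 also: viability read 80 hours after compound addition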
Method in brief: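 Viability endpoint from xCELLigence impedance in 22Rv1 prostate cells at 80 h. Eight-point series, 100 uM maximum final.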

[10] = ACEA_ER_AUC_viability: ACEA Biosciences xCELLigence Real-Time Cell Analysis on Estrogen Receptor Agonism for Viability (AID 2283782);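 also: hit means loss of impedance signal meaning reduced cell growth or viability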
Method in brief: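 Read-out: real-time electrical impedance (RT-CES) area under curve, loss of signal taken as reduced viability, normalized to DMSO baseline. T-47D cells, charcoal-stripped serum medium, compounds up to 100 uM final, continuous exposure, 80 h.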

[11] = system: turtle Androgen Receptor (AR), gene 101947425; assay: ATG_trAR_XSP2: Attagene TRANS-FACTORIAL Multi-Species (XSP2) HepG2 Assay for turtle Androgen Receptor (AR) (AID 2283815);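 also: reporter mRNA from a Gal4 chimera of turtle AR measured by RT-PCR; potency for gain of reporter signal meaning activation above DMSO baseline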
Method in brief: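 Reporter transcripts were quantified via RT-PCR and capillary electrophoresis and fitted upward against DMSO. Transiently transfected human HepG2 cells carrying NR-Gal4 chimeras were exposed 24 h, with 3 nM 6-alpha-fluorotestosterone plus 1.5 nM norgestrel added.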

[12] = biological target: zebrafish Estrogen Receptor (ER1), esr1 (gene 259252) (UniProt P57717); assay: ATG_zfER1_XSP2: Attagene TRANS-FACTORIAL Multi-Species (XSP2) HepG2 Assay for zebrafish Estrogen Receptor (ER1) (AID 2283816)
Method in brief: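 After 24 h compound exposure, RNA from transfected HepG2 cells was reverse-transcribed and reporter transcripts resolved by capillary electrophoresis. The TRANS format reads exogenous zebrafish ER1-Gal4 chimera activity on GAL4-UAS elements; gain of signal against DMSO.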

[13] = system: chicken Androgen Receptor (AR), gene 422165; assay: ATG_chAR_XSP2: Attagene TRANS-FACTORIAL Multi-Species (XSP2) HepG2 Assay for chicken Androgen Receptor (AR) (AID 2283819);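 also: hits raise reporter mRNA above DMSO so potency is for activation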
Method in brief: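 Readout is reporter mRNA induction via RT-PCR/capillary electrophoresis after 24 h chemical exposure, positive direction relative to DMSO. Transiently transfected HepG2 express chimeric chicken AR–GAL4; AR stimulated by 3 nM 6-alpha-fluorotestosterone and 1.5 nM norgestrel.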

[14] = biological target: human Androgen Receptor (AR), AR (gene 367) (UniProt P10275); assay: ATG_hAR_XSP2: Attagene TRANS-FACTORIAL Multi-Species (XSP2) HepG2 Assay for human Androgen Receptor (AR) (AID 2283820)
Method in brief: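 Reporter transcripts were measured by RT-PCR and capillary electrophoresis 24 h post-dosing, with gain of signal fitted against DMSO. Transiently transfected HepG2 cells expressed chimeric NR-Gal4 on GAL4-UAS reporters, with AR stimulated by 3 nM 6-alpha-fluorotestosterone and 1.5 nM norgestrel.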

[15] = system: frog Estrogen Receptor (ER), gene 398734; assay: ATG_frER1_XSP2: Attagene TRANS-FACTORIAL Multi-Species (XSP2) HepG2 Assay for frog Estrogen Receptor (ER) (AID 2283821);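 also: hits raise reporter mRNA above DMSO baseline so potency means agonist or activator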
Method in brief: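 Reporter mRNA induction, detected as fluorescence after RT-PCR and capillary electrophoresis, is the endpoint; activity is fitted upward against DMSO. Cells are human liver HepG2 carrying transfected NR-Gal4 chimeras with GAL4-UAS-driven reporters, harvested 24 h post-dosing.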

[16] = ATG_M_19_XSP2: Attagene TRANS-FACTORIAL Multi-Species (XSP2) HepG2 Assay for M32 Transcription Factor (Internal Marker) (AID 2283822)
Method in brief: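 Internal background marker in a multi-species nuclear receptor TRANS panel: transfected HepG2 cells exposed 24 h, with 3 nM 6-alpha-fluorotestosterone and 1.5 nM norgestrel present. Readout is RT-PCR of reporter transcripts resolved by capillary electrophoresis, gain-of-signal versus DMSO.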

[17] = system: frog Androgen Receptor (AR), gene 399456; assay: ATG_frAR_XSP2: Attagene TRANS-FACTORIAL Multi-Species (XSP2) HepG2 Assay for frog Androgen Receptor (AR) (AID 2283824);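 also: reporter mRNA from GAL4-UAS units driven by Xenopus AR-Gal4 chimera; actives raise reporter signal above DMSO so AC50 reflects agonist-like induction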
Method in brief: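 Reporter transcript induction, read by RT-PCR with fluorescent capillary electrophoresis, in human liver HepG2 cells carrying an exogenous Xenopus AR-Gal4 fusion and GAL4-driven reporters; chemical exposure 24 hours, activity scored upward against DMSO controls.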

[18] = system: zebrafish Androgen Receptor (AR), gene 100005148; assay: ATG_zfAR_XSP2: Attagene TRANS-FACTORIAL Multi-Species (XSP2) HepG2 Assay for zebrafish Androgen Receptor (AR) (AID 2283825);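 also: hits raise reporter mRNA above DMSO so AC50 reflects agonist-type gain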
Method in brief: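 After 24 h compound exposure in medium with 3 nM 6-alpha-fluorotestosterone plus 1.5 nM norgestrel, HepG2 cells carrying zebrafish AR–GAL4 reporter constructs were assessed for reporter mRNA gain by RT-PCR and capillary electrophoresis.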

[19] = biological target: Peroxisome proliferator-activated receptor gamma (Homo sapiens) (UniProt P37231); assay: ATG_hPPARg_XSP2: Attagene TRANS-FACTORIAL Multi-Species (XSP2) HepG2 Assay for human Peroxisome Proliferator-activated Receptor gamma (PPARg) (AID 2283829);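 also: actives raise reporter mRNA above DMSO so AC50 reflects PPARg activation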
Method in brief: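 HepG2 cells transiently transfected with GAL4-UAS reporter units driven by chimeric NR-Gal4 proteins; androgen receptor stimulated with 3 nM 6-alpha-fluorotestosterone and 1.5 nM norgestrel. After 24 h, reporter mRNA quantified by RT-PCR and capillary electrophoresis versus DMSO.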

[20] = biological target: zebrafish Thyroid Hormone Receptor alpha (TRa), thraa (gene 30670) (UniProt Q98867); assay: ATG_zfTRa_XSP2: Attagene TRANS-FACTORIAL Multi-Species (XSP1) HepG2 Assay for zebrafish Thyroid Hormone Receptor alpha (TRa) (AID 2283832);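 also: actives raise zebrafish TRa-Gal4 reporter transcript above DMSO baseline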
Method in brief: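 Readout is reporter mRNA induction, quantified by RT-PCR and capillary electrophoresis with fluorescent labelling, after 24 h compound exposure of transiently transfected HepG2 cells carrying NR-Gal4 chimera reporters. Activity fitted upward relative to DMSO.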

[21] = system: zebrafish Peroxisome Proliferator-activated Receptor gamma (PPARg), gene 557037; assay: ATG_zfPPARg_XSP2: Attagene TRANS-FACTORIAL Multi-Species (XSP2) HepG2 Assay for zebrafish Peroxisome Proliferator-activated Receptor gamma (PPARg) (AID 2283833);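 also: reporter mRNA from a zebrafish PPARg GAL4 chimera measured by RT-PCR and capillary electrophoresis; actives increase reporter signal over DMSO so AC50 reflects activation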
Method in brief: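 HepG2 cells transiently transfected with multiplexed GAL4-UAS reporter units expressing chimeric NR-Gal4 receptors, dosed 24 h. Reporter mRNA quantified by RT-PCR, fluorescent labelling, HpaI digestion and capillary electrophoresis; gain of signal fitted against DMSO.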

[22] = biological target: zebrafish Thyroid Hormone Receptor beta (TRb), thrb (gene 30607) (UniProt Q9PVE4); assay: ATG_zfTRb_XSP2: Attagene TRANS-FACTORIAL Multi-Species (XSP1) HepG2 Assay for zebrafish Thyroid Hormone Receptor beta (TRb) (AID 2283836);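 also: potency for induction of reporter signal above DMSO so agonist direction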
Method in brief: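 Reporter transcripts were measured by RT-PCR with fluorescent primer extension and capillary electrophoresis, 24 h after chemical dosing of transiently transfected HepG2 cells. Activity was scored as upward signal versus DMSO baseline.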

[23] = ATG_XTT_Cytotoxicity_XSP2: Cytotoxicity Assessment in the Attagene TRANS-FACTORIAL Multi-Species (XSP2) HepG2 Assay (AID 2283837)
Method in brief: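 XTT-based cell number read-out in human HepG2 liver cells carrying transfected reporter units, measured 24 h after chemical dosing. Activity is signal loss versus DMSO baseline.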

[24] = biological target: frog Thyroid hormone Receptor alpha (TRa), thra-a (gene 397942) (UniProt P15204); assay: ATG_frTRa_XSP2: Attagene TRANS-FACTORIAL Multi-Species (XSP2) HepG2 Assay for frog Thyroid hormone Receptor alpha (TRa) (AID 2283839);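 also: AC50 reflects induction of frog TRa-driven reporter mRNA above DMSO baseline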
Method in brief: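 HepG2 transiently transfected with multiplexed GAL4-UAS reporters driven by frog TRa-Gal4 chimeras; 24 h chemical exposure. Reporter mRNA quantified by RT-PCR, FAM labelling, HpaI digestion and capillary electrophoresis; gain of signal versus DMSO.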

[25] = biological target: Nucleoli Translocation, AR (gene 367) (UniProt P10275); assay: UPITT_HCI_U2OS_AR_TIF2_Nucleoli_Agonist: University of Pittsburgh U2OS Androgen Receptor-Transcriptional Intermediary Factor 2 (AR-TIF2) Agonism High Content Imaging Assay for Nucleoli Translocation (AID 2283998)
Method in brief: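 U2OS cells expressing RFP-tagged human AR and GFP-tagged TIF2; red fluorescence in nucleoli quantified by high-content imaging. Primary screen at 20 uM final (0.2% DMSO); concentration-response 0.195–50 uM (0.5% DMSO), fitted upward versus DMSO.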

[26] = CCTE_Deisenroth_AIME_384WELL_CTox_Active: Cytotoxicity Assessment (CTOX) in CCTE's 384-well Estrogen Receptor Transactivation Assay with AIME metabolic competence (metabolism positive), Deisenroth Lab (AID 2284037);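 also: chemicals first conditioned 2 h by alginate-bound induced rat liver S9 before cells; activity means signal loss indicating cell death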
Method in brief: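 Chemicals pre-incubated 2 hours with alginate-immobilised phenobarbital/beta-naphthoflavone-induced male Sprague Dawley rat liver S9, then conditioned medium applied 24 hour to VM7Luc4E2 cells. Viability by fluorogenic protease substrate; 10-point series 0.002 - 200 uM.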

[27] = CCTE_Deisenroth_AIME_384WELL_CTox_Inactive: Cytotoxicity Assessment (CTOX) in CCTE's 384-well Estrogen Receptor Transactivation Assay without AIME metabolic competence (metabolism negative), Deisenroth Lab (AID 2284039);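 also: cell viability via live-cell protease substrate cleaved to fluorescent probe; cells exposed 24 h to medium preincubated 2 h with alginate-water beads without S9; loss of fluorescence signal means loss of viability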
Method in brief: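 Metabolism-negative arm: chemicals (10-point, 0.002 - 200 uM) preincubated 2 h with alginate-water lids, medium moved onto VM7Luc4E2 cells for 24 h. Fluorescent live-cell protease readout; bidirectional curve fit.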

Measured: AC50

O=[P+](Oc1ccccc1)Oc1ccccc1
inconclusive: [1] 0.0465 µM | [2] 156 µM | [3] 0.0091 µM | [4] 26.9 µM | [5] 181 µM | [6] 0.268 µM | [7] 0.0713 µM | [8] 0.0336 µM | [9] 16.6 µM | [10] 5.72 µM | [11] 100 µM and 180 µM | [12] 1.87 µM | [13] 2.15 nM and 173 µM | [14] 100 µM | [15] 0.00914 µM | [16] 100 µM | [17] 100 µM and 179 µM | [18] 0.0346 µM | [19] 100 µM | [20] 100 µM | [21] 0.0823 µM | [22] 466 nM and 100 µM | [23] 100 µM | [24] 100 µM | [25] 50 µM | [26] 0.0002 µM | [27] 0.00111 µM

Reference: PubChem BioAssay (EPA / NIEHS)
